This is a sample that favours compounds with a hit; in the whole collection about 3.7% have one here.
ClpP mod: qHTS Assay for Activators of ClpP | Potency, µM (highest dose often 57.5 µM), without a hit: top-dose activity change, negative = active | AID 651965, 2013 | ATP-dependent Clp protease proteolytic subunit (Bacillus subtilis (strain 168)), P80244 | 1.9% of 340,000 active | purified B. subtilis ClpP, FRET peptide cleavage, 20 min; active = well fitted falling curve with a large enough effect; inconclusive = small, poorly fitted or top-dose-only effect; inactive = no such curve, though single readings can be large or run the other way; note: potency is the fitted concentration of half-maximal effect; the source files actives as falling curves though it sought activators and does not explain the sign; nearly all actives have a fitted effect of over 65% in size
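Purified B. subtilis ClpP, 10 microg/mL final in Tris/HCl pH8 with KCl, BSA, glycerol and Tween-20, cleaved an Abz/nitrotyrosine-quenched decapeptide. Fluorescence (ex 320, em 430) was read at 0 and 20 min at room temperature. Delta was normalized to 5.8 microM ADEP and DMSO/no-enzyme controls.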
A549 tox-1: kills or reduces viability of A549 cells in Nrf2 counter-screen. A549 ARE-Fluc cells, CellTiter-Fluor viability, 18-24 h. Potency, µM (doses to about 46 µM), for the others: top-dose activity change, negative = cytotoxicity, hits mostly inhibitors. 0.16% of 390,000 active. AID 504648; note: potency is the fitted concentration of half-maximal effect; % is set by controls: 0 for no effect and ±100 for the full control effect
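A549 ARE-Fluc cells in 5% FBS OPTI-MEM, 5000 cells/well, rested 2 h then exposed to compounds in concentration-response for 18-24 h at 37 °C. Viability by CellTiter-Fluor fluorescence (Ex 405/Em 525) after 30 min; luciferase luminescence (BugLite, 15 min, RT) read afterwards.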
Nrf2 inh: inhibitors of Nrf2 signaling. A549 ARE-Fluc reporter, luciferase luminescence, 18-24 h. Potency, µM (series often up to 46 µM), inactives show top-dose activity change, negative = inhibition, usual class: inhibitors. 2.1% of 360,000 active. AID 504444; note: potency is the fitted concentration of half-maximal effect; % is set by controls: 0 for no effect and ±100 for the full control effect; nearly all actives have a fitted effect of over 60% in size
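Nrf2 activity is the BugLite luminescence, read 15 min after reagent at room temperature, following CellTiter-Fluor cytotoxicity readout (30 min, 37C). Compound titrations were applied for 18-24 h to 5000 A549 ARE_Fluc cells/well in 5% FBS OPTI-MEM.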
Nrf2 ARE act: Nrf2 pathway activation; Potency, µM (highest dose often 46.1 µM), for the others: at the top dose activation, hits mostly activators; 0.31% of 410,000 active; AREc32 ARE-luciferase reporter (MCF7-derived line), luminescence, 24 h; note: potency is the fitted concentration of half-maximal effect; % of control where 0% means no effect; nearly all actives have a fitted effect of over 65% in size
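AREc32_Fluc, 1000 cells/well, OPTI-MEM + 5% FBS, o/n 37 deg C 5% CO2; 23 nL cpd by pin tool, 24 hr; Steady-Glo 30 min RT, luminescence.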
TCR activator: T cell receptor activation; 330,000 tested, under 10 active; primary human leukocytes, anti-CD3, IL-2 HTRF, 48 h; Potency, µM (series often up to 9.22 µM), inactives show at the top dose activation of IL-2 secretion, usual class: activators; note: % of control where 0% means no effect
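Activity was scored as IL-2 release from primary human leukocytes given only a TCR signal (a-CD3 beads) plus compound for 48 hr. Detection used a two-antibody HTRF format read at 665nm.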
miR-21 reporter: miR-21 reporter, rising signal; HeLa miR-21 FLuc reporter, luciferase, 48 h; Potency, µM (titrated, usually from 38.3 µM), without a hit: top-dose reporter change, positive = more light; AID 2288; 340,000 tested, under 10 active; active = well fitted rising curve with a large enough effect; inconclusive = small, poorly fitted or top-dose-only effect; inactive = no such curve, though single readings can be large or run the other way;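 further: % of control where 0% means no effect; miR-21 action dims this reporter so a rising signal means less miR-21 action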
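Compounds were titrated across several concentrations (up to approximately 40 uM) and incubated 48 hours with HeLa miR-21-FLuc reporter cells (miR-21 target sequence downstream of FLuc, endogenous miR-21). Readout was firefly luciferase luminescence after lytic detection reagent.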
FLuc enzyme inh: blocks purified firefly luciferase in Nrf2 counterscreen; Potency, µM (top dose mostly 57.5 µM), without a hit: at the top dose activity change, negative = inhibition, actives largely listed as inhibitors; shares compounds with Nrf2 inh; purified firefly luciferase, luminescence inhibition; 4% of 1,400 active; note: potency is the fitted concentration of half-maximal effect; % is set by controls: 0 for no effect and ±100 for the full control effect; nearly all actives have a fitted effect of over 65% in size
A549 tox-2: toxic to A549 ARE-Fluc cells in Nrf2 counterscreen; Potency, µM (highest dose often 46.1 µM), inactives show at the highest dose activity change, negative = cytotoxicity, usual class: inhibitors; 2% of 1,400 active; A549 ARE-Fluc cells, cytotoxicity counterscreen; shares compounds with Nrf2 inh; AID 720523;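 note: potency is the fitted concentration of half-maximal effect; cells exposed to compounds for 18 to 24 hours; % is set by controls: 0 for no effect and ±100 for the full control effect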
Nrf2 ARE inh: reduces Nrf2 ARE reporter signal in A549 cells. shares compounds with Nrf2 inh. A549 ARE-firefly luciferase reporter, luminescence. Potency, µM (series often up to 46.1 µM), inactives show top-dose activity change, negative = inhibition, most hits filed as inhibitors. 74% of 1,400 active; note: potency is the fitted concentration of half-maximal effect; % is set by controls: 0 for no effect and ±100 for the full control effect; nearly all actives have a fitted effect of over 65% in size
The depositor's hits bear a star; ? = inconclusive; . = no result given; [ ] = remark or other dose. Unless noted, calls come from the whole dose curve; as a rule, active = well fitted curve in the direction sought with a large enough effect; inconclusive = small, poorly fitted or top-dose-only effect, or another doubt; inactive = no such curve, though single readings can be large; an effect the other way counts as inactive or inconclusive.

Key to letters – A = ClpP mod; B = A549 tox-1; C = Nrf2 inh; D = Nrf2 ARE act; E = TCR activator; F = miR-21 reporter; G = FLuc enzyme inh; H = A549 tox-2; I = Nrf2 ARE inh
O=S(=O)(c1ccccc1)N1CCC(O)(CSc2ccc(F)cc2)CC1
  A = .; B = ?; C = 4.1µM*; D = 0%; E = 1%; F = 23%; G = 0%; H = -7%; I = 6.5µM*
N=c1ccn(Cc2cccc(F)c2)cc1
  A = 0%; B = ?; C = 2.1µM*; D = 0%; E = -7%; F = 24%; G = 5%; H = -10%; I = 5.8µM*
Nc1ccn(Cc2cccc(F)c2)n1
  A = 3%; B = 0%; C = -16%; D = -1%; E = 8%; F = 0%; G = .; H = .; I = .
COc1ccc(NC(=O)C(C)N2c3cccc4cccc(c34)S2(=O)=O)cc1OC (centres undefined)
  A = -1%; B = -28%; C = 8.2µM*; D = 1%; E = -6%[46.1 µM]; F = 7%; G = -1%; H = -8%; I = 23µM*
COc1ccc(NC(=O)C(C)N2c3cccc4cccc(c34)S2(=O)=O)cc1 (centres undefined)
  A = -17%; B = 18%; C = .; D = 0%; E = 1%; F = -1%; G = .; H = .; I = .
CN(C)c1cccc(NC2=CC(=[N+]3CCOCC3)CC(C)(C)C2)c1
  A = 1%; B = -13%; C = -10%; D = 0%; E = 5%; F = -1%; G = .; H = .; I = .
CCN(CC)C1=CC(=[N+]2CCCC2)CC(C)(C)C1
  A = -1%; B = -7%; C = 8.2µM*; D = -1%; E = 5%; F = 19%; G = 1%; H = -4%; I = 6.5µM*
CN(Cc1ccccc1)C1=CC(=[N+]2CCCC2)CC(C)(C)C1
  A = .; B = 1%; C = 4.6µM*; D = 3%; E = 0%; F = ?; G = -19%; H = ?; I = 18µM*
O=c1cc(-c2ccccc2)n2c(SCc3ccc(Br)cc3)nnc2[nH]1
  A = ?; B = 18%; C = .; D = 0%; E = .; F = -2%; G = .; H = .; I = .
CC(C)CCCCCCCCCCCCC(=O)NCC(=O)NC1C(O)C(O)C(Nc2ncnc3nc[nH]c23)OC1C(O)CO (centres undefined)
  A = -1%; B = 0.73µM*; C = 0.058µM*; D = 0%; E = 16%; F = .; G = 0%; H = ?; I = 0.013µM*
CCOc1ncccc1C(=O)Nc1cc(S(=O)(=O)N2CCOCC2)ccc1OCC(F)(F)F
  A = .; B = 3%; C = 2%; D = 1%; E = 6%; F = .; G = .; H = .; I = .
Cc1ccc(SCc2nc(-c3ccc(C(=O)Nc4cc(C)ccc4C)cc3)oc2C)cc1
  A = ?; B = -3%; C = 5.8µM*; D = 1%; E = .; F = 1%; G = -2%; H = -6%; I = 7.3µM*
COc1cccc(NC(=O)c2ccc(-c3nc(COc4ccc(C)cc4)c(C)o3)cc2)c1
  A = -7%; B = -1%; C = 5.2µM*; D = 3%; E = .; F = 7%; G = -12%; H = -12%; I = ?
Cc1oc(-c2ccc(C(=O)NCCc3ccc(Cl)cc3)cc2)nc1CSc1ccccc1
  A = ?; B = -1%; C = -3%; D = -1%; E = .; F = 0%; G = .; H = .; I = .
COc1cc(NC(=O)c2ccc(-c3nc(CSc4ccccc4)c(C)o3)cc2)cc(OC)c1
  A = 14µM*; B = 0%; C = 7.3µM*; D = 0%; E = .; F = 25%; G = -15%; H = -8%; I = 7.3µM*

Some entries already given, reduced to TCR activator, miR-21 reporter and A549 tox-1.
molecule,TCR activator,miR-21 reporter,A549 tox-1
COc1cc(NC(=O)c2ccc(-c3nc(CSc4ccccc4)c(C)o3)cc2)cc(OC)c1,.,25%,0%
COc1ccc(NC(=O)C(C)N2c3cccc4cccc(c34)S2(=O)=O)cc1OC (centres undefined),-6%[46.1 µM],7%,-28%

(continued)
Key to letters – A = ClpP mod; B = A549 tox-1; C = Nrf2 inh; D = Nrf2 ARE act; E = TCR activator; F = miR-21 reporter; G = FLuc enzyme inh; H = A549 tox-2; I = Nrf2 ARE inh
COc1ccc(C(=O)N[C@H](C(=O)NCCc2ccc3c(c2)OCCO3)C(C)C)cc1
  A = -6%; B = -6%; C = -33%; D = 0%; E = .; F = .; G = .; H = .; I = .
COc1cccc(S(=O)(=O)N(C)C[C@@H]2OCc3cnnn3CCCC(=O)N([C@@H](C)CO)C[C@@H]2C)c1
  A = -4%; B = .; C = .; D = 1%; E = .; F = .; G = .; H = .; I = .
COc1ccc(Nc2cc(C)nc3ncnn23)c(OC)c1
  A = -1%; B = 2%; C = -11%; D = 13%; E = -4%; F = -18%; G = .; H = .; I = .
COc1ccc(CNc2cc(C)nc3ncnn23)c(OC)c1
  A = 1%; B = -23%; C = 1.6µM*; D = 3%; E = -2%; F = 9%; G = 2%; H = -9%; I = ?
CCOc1ccccc1NC(=O)Cn1nc2c3cc(F)ccc3n(Cc3cccc(C)c3)cc-2c1=O
  A = 2%; B = 7%; C = ?; D = 2%; E = .; F = -9%; G = .; H = .; I = .
Oc1ccc(CCNc2ncnc3ccc(Cl)cc23)cc1
  A = -1%; B = -3%; C = 7.3µM*; D = 0%; E = -3%; F = ?; G = -18%; H = -1%; I = 7.3µM*
COc1ccc(C2=Nn3c([n+](C)c4ccccc43)SC2)cc1
  A = 0%; B = -25%; C = 2.1µM*; D = 0%; E = -2%; F = ?; G = 0%; H = ?; I = .
CN(c1ccc(C(=O)N2CCN(Cc3ccc4c(c3)OCO4)CC2)cc1)S(=O)(=O)c1ccccc1
  A = 1%; B = 3%; C = 6.5µM*; D = 1%; E = -1%; F = 24%; G = 2%; H = 1%; I = 9.2µM*
Cc1ccnc2ccc3ccccc3c12
  A = 5%; B = .; C = .; D = .; E = .; F = .; G = -1%; H = -23%; I = 6.5µM*
Cc1ccc(Cn2c(C)c3cnn(CC(=O)N4CCN(c5cc(C)ccc5C)CC4)c(=O)c3c2C)cc1
  A = ?; B = -17%; C = 8.2µM*; D = -1%; E = .; F = ?; G = 4%; H = -23%; I = 6.5µM*
Cc1c2cnn(CC(=O)N3CCN(c4ccc(F)cc4)CC3)c(=O)c2c(C)n1Cc1ccc(F)cc1
  A = -2%; B = -11%; C = ?; D = 4%; E = .; F = -2%; G = .; H = .; I = .
Cc1cc[n+](Cc2ccc([N+](=O)[O-])cc2)cc1
  A = .; B = -9%; C = ?; D = 0%; E = -8%; F = -12%; G = .; H = .; I = .
Cc1ccc(-c2cc[n+](Cc3ccccc3)cc2)cc1
  A = 1%; B = -8%; C = 7.3µM*; D = -1%; E = -8%; F = ?; G = 1%; H = -2%; I = 9.2µM*
Cc1cc(-c2ccccc2)n(-c2ccccc2)n1
  A = .; B = 0%; C = ?; D = 2%; E = 5%; F = -56%; G = .; H = .; I = .
C[C@@]12C=Cc3occc3[C@H]1CC[C@]13CC(=O)[C@@H](CC[C@H]12)C3
  A = .; B = 0%; C = 8%; D = .; E = .; F = .; G = .; H = .; I = .

Key to letters – A = ClpP mod; B = A549 tox-1; C = Nrf2 inh; D = Nrf2 ARE act; E = TCR activator; F = miR-21 reporter; G = FLuc enzyme inh; H = A549 tox-2; I = Nrf2 ARE inh
COc1ccc(/C=N\NC(=O)c2ccccc2Br)cc1COc1c(F)c(F)cc(F)c1F
  A = -2%; B = ?; C = 5.2µM*; D = 2%; E = 2%; F = 15%; G = 1%; H = -7%; I = ?
COc1ccc(/C=N\NC(=O)c2ccccc2F)cc1COc1ccc(F)cc1
  A = 37%; B = 1%; C = -15%; D = 0%; E = -5%; F = 3%; G = .; H = .; I = .
COc1ccc(Cn2c(=O)[nH]c3cc(C(=O)NCc4ccc5c(c4)OCO5)ccc3c2=O)cc1
  A = 4%; B = -2%; C = ?; D = 3%; E = -15%; F = .; G = .; H = .; I = .
O=C(NCc1ccc2c(c1)OCO2)c1ccc2c(=O)n(C3CCCC3)c(=O)[nH]c2c1
  A = -20%; B = ?; C = 8.2µM*; D = 4%; E = 1%; F = 6%; G = 0%; H = -9%; I = 0.23µM*
O=C(Nc1ccccc1)c1ccc(S(=O)(=O)Nc2cccc(O)c2)cc1
  A = 0%; B = -1%; C = ?; D = 0%; E = -5%; F = 16%; G = .; H = .; I = .

Source: PubChem
